Laboratory results reported in patent publication US5714615A (priority 1994, dated 1998).

By UniProt entry, the sequences of proteins in these tests, tags left out. Residues count along the entry.
UniProt O42275, 24-633 limits assumed: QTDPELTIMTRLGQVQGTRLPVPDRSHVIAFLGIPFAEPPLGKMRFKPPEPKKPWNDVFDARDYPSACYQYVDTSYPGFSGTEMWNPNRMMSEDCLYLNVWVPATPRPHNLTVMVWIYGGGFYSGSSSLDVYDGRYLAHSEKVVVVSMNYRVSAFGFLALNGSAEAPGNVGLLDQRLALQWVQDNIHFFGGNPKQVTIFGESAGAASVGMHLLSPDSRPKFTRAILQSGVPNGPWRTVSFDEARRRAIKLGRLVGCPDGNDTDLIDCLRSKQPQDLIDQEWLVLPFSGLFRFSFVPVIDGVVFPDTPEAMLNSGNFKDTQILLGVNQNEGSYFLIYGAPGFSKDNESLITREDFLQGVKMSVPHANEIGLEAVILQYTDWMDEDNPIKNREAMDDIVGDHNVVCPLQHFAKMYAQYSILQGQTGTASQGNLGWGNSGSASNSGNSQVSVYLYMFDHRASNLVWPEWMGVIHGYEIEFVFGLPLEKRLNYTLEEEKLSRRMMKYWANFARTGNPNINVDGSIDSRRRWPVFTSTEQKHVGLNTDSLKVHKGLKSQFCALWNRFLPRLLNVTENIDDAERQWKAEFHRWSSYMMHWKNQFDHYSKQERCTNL
UniProt P22303, 32-617 isoform 2 limits assumed: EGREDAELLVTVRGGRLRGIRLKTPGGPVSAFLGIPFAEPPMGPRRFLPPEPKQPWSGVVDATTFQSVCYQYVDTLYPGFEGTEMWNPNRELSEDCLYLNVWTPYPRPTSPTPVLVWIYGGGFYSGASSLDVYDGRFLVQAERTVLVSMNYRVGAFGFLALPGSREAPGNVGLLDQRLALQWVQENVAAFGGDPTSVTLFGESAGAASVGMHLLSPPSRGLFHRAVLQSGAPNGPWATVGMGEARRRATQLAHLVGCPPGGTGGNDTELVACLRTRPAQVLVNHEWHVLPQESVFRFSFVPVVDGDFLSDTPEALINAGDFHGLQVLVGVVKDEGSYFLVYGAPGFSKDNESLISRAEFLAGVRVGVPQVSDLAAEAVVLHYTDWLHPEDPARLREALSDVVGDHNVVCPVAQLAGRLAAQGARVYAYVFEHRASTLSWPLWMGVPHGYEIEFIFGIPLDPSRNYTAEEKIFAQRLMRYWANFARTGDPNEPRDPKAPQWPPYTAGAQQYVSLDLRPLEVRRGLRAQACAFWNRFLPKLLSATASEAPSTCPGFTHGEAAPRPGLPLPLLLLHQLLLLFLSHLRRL

What was measured:
[1] = biological target: electric eel acetylcholinesterase (Electrophorus electricus, UniProt O42275); test: Irreversible inhibition of electric eel AChE; format: biochemical; conditions: second order inhibition rate constant
[2] = biological target: human erythrocyte acetylcholinesterase (Homo sapiens, UniProt P22303); test: Irreversible inhibition of human erythrocyte AChE; format: biochemical; conditions: for anti AChE activity with human AChE relative to pyridostigmine and physostigmine: in vitro; for kobs/[I] (human): second order inhibition rate constant
[3] = tested on: acetylcholinesterase; test: Irreversible inhibition of AChE, species of enzyme not stated
[4] = biological target: electric eel AChE (Electrophorus electricus, UniProt O42275); test: Reversible (competitive) inhibition of electric eel AChE; format: biochemical

SMILES	kobs/[I] (eel) [1] [M⁻¹ s⁻¹]	anti AChE activity with human AChE relative to pyridostigmine and physostigmine [2]	half-life for inactivation of AChE [3]	kobs/[I] (human) [2] [M⁻¹ s⁻¹]	% Inhibition ([4]; 0.15 mM inhibitor) [%]	% Inhibition ([4]; 0.35 mM inhibitor) [%]	% Inhibition ([4]; 0.45 mM inhibitor) [%]
COc1ccc(CON=Cc2c(OC(=O)N(C)C)ccc[n+]2C)cc1	5000	greater anti AChE activity in vitro with human AChE than either pyridostigmine or physostigmine	about 9 sec				
CN(C)C(=O)Oc1ccc[n+](C)c1C=NOC(c1ccccc1)c1ccccc1	870			1100			
CN(C)C(=O)Oc1ccc[n+](C)c1C=NOCc1ccccc1	1700	greater anti AChE activity in vitro with human AChE than either pyridostigmine or physostigmine		68000			
CN(C)C(=O)Oc1ccc[n+](C)c1C=NNc1c(Cl)cc(Cl)cc1Cl					48	75	82
CN(C)C(=O)Oc1ccc[n+](C)c1C=NNC(N)=O	25			2200			
